Test results reported in US7122360.

Tested on: GST-CREB [GST: P08515]

PKA prepared from bovine heart
Km: Km of 17 µM
